# Sampled rows, rich in hits. Any-hit rate of the full collection: about 0.46%.
# HCMV NEC inh = inhibitors of HCMV UL50-UL53 nuclear egress complex interaction; HTRF UL50-UL53 interaction, normalized percent inhibition; inhibition, % (no concentration beside the values); 0.15% of 190,000 active; AID 1918969; in the data active = inhibition above about 27%, passing the limit was not always enough
# GIV Gai3 FP = inhibitors of GIV GBA-motif binding to rat Galpha-i3. actives 0.42% (n = 210,000). Galpha-i3/FITC-GIV peptide fluorescence polarization, 90 min; active compounds read low; scaled: aluminum fluoride 0%, vehicle 100%. AID 1224905. percent of control (FP), % (no concentration beside the values). P08753;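 active means replicate mean at 85% of control or lower, very high polarization wells dropped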;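 further: wells of about 15 µL received 100 nL stock; the first replicate is given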
# * = called active by the depositor; · = no result; ! = not confirmed by another sample.
SMILES,HCMV NEC inh,GIV Gai3 FP
c1ccc(N=c2[n-][n+](-c3ccccc3)cn2-c2ccccc2)cc1,55.4*,·
CCN(CC)C(=O)CSc1nc(-c2ccccc2)cn1N,-15.0,·
O=c1c2ccccc2nc2c(-c3nc(-c4ccccc4)no3)cccn12,-27.1,117.6
O=c1c2ccccc2nc2c(-c3nc(-c4ccc5c(c4)OCO5)no3)cccn12,-18.3,57.9*
O=C(CSc1nc2c(c(=O)n1-c1ccccc1)SCC2)N1CCCC1,-61.8,105.7
Cc1ccc(-c2csc3c2ncn2c(=O)n(CC(=O)NCc4ccccc4)nc32)cc1,·,99.4
COC(=O)c1ccc(CSc2nc(CN3CCOCC3)nc3sc4c(c23)CCCC4)o1,-23.7,·
CCc1nn(CC(=O)N2CCC(Cc3ccccc3)CC2)c(=O)c2cc3occc3n12,-17.6,95.5
CCN(CC)C(=S)SCc1cc(=O)n2ccsc2n1,2.9,·
CCCN1C/C(=C\c2ccc(N(C)C)cc2)C(=O)/C(=C/c2ccc(N(C)C)cc2)C1,-28.6,221.1
CN(C)c1ccc(/C=C2\CCC(=C3SCCCS3)C2=O)cc1,-18.6,·
COc1cccc2c1CC/C(=C\c1ccc(N(C)C)cc1)C2=O,-19.1,-68.6*
CC(C)C/C=C1\CC/C(=C\c2ccc(N(C)C)cc2)C1=O,-23.2,-73.9*
COC(=O)c1ccc(=O)c2nc3/c(=C/O)c(O)cc(=O)c3[nH]c12,49.6*,100.2
COC(=O)c1ccc(N)cc1O,-20.3,100.5
Cc1ccc(-c2ccc(C(=O)O)cc2)cc1,-21.4,·
O=C1N=C(c2ccccc2)S/C1=C\c1cccs1,·,113.2
Cc1c(/C=C2\SC(c3ccccc3)=NC2=O)c(=O)n(-c2ccccc2)n1C,·,-4.0*
c1ccc(-c2nc(N(c3ccccc3)c3ccccc3)s[n+]2-c2ccccc2)cc1,·,103.7
CC(=O)n1cc(/C=c2\sc3nc4cc(C)c(C)cc4n3c2=O)c(-c2ccc(F)cc2)n1,·,102.3
COc1cc2ccc3c(CCN(C)C)cc(OC)c(OC)c3c2cc1OC,·,106.3
COc1cc2cc3c4c(cc(OC)c(OC)c4c2cc1OC)CCN3C,67.4*,·
CCSC1=C(C#N)C(c2ccccc2Cl)C(C#N)=C(N)N1 (stereo not drawn),-55.7,·
Cc1ccc(S(=O)(=O)N2CCC(c3nc4cc(C(=O)N5CCCC5)ccc4n3C3CCCCC3)CC2)cc1,·,105.8
O=C1c2ccccc2-c2nc3ccccc3nc21,-134.6,103.7

# (next part)
SMILES,HCMV NEC inh,GIV Gai3 FP
CCN(CC)c1ccc2nc3c(nc2c1)C(=O)c1ccccc1C3=O,63.6*,107.5
CCC(=O)Nc1ccc2nc3c(=O)n(C)c(=O)n(C)c3nc2c1,-151.8,102.2
CCOc1cccc(N2C(=O)/C(=C\c3ccc(N(CC)CC)cc3OC)C(=O)NC2=S)c1,-14.1,221.9
CCN(CC)c1ccc2nc3c(=O)n(C)c(=O)n(C)c3nc2c1,-137.8,-25.7*
CCN(CC)c1ccc(C=C2C(=O)c3ccccc3C2=O)c(OC)c1,·,-18.2*
C=CCSc1nc(C)cc(C)c1C(=O)Nc1ccccc1,-6.7,101.2
Cc1ccc(N2C(=O)CCS2(=O)=O)cc1S(=O)(=O)Nc1ccc2c(c1)OCO2,7.1,94.9
Cc1ccc(C)c(N2C(=O)/C(=C/c3ccc(-c4cc(Cl)ccc4Cl)o3)C=C2c2ccccc2)c1,·,102.1
CN/N=C/c1c(O)ccc2ccccc12,49.0*,·
O=S(=O)(/N=C/c1c(O)ccc2ccccc12)c1cccs1,97.5*,·
O=S(=O)(/N=C\c1cc(Br)ccc1O)c1cccs1,3.1,·
CC(NC(=O)c1ccccc1N=Cc1c(O)ccc2ccccc12)c1ccccc1 (stereo not drawn),67.5*!,·
Oc1ccc2ccccc2c1C=NCc1ccccc1,59.8*,103.2
CC(C(=O)Nc1cccc(N=Cc2c(O)ccc3ccccc23)c1)c1ccccc1 (stereo not drawn),-6.8,·
O/N=C/c1c(O)ccc2ccccc12,-22.7,97.8
O=CN/N=C/c1c(O)ccc2ccccc12,-16.6,·
Cc1nnc(-c2coc(S(=O)(=O)N3CCCCCC3)c2)o1,·,105.4
CCc1ccc(C(=O)Nc2nccs2)cc1,·,104.8
Cc1ccc(-c2nc(CSCC(=O)NC3CCCCC3)no2)cc1,·,98.8
Oc1ccc2ccccc2c1/C=N/c1ncccn1,99.3*,·
O=c1oc2ccccc2c(O)c1/C=N/c1ncccn1,-17.7,·
Cc1ccc(C)c(NC(=O)C(C)N2C(=O)C3C4C=CC(C4)C3C2=O)c1 (stereo not drawn),-9.3,107.2
NC(=O)CSc1ccc2nnc(-c3ccccc3)n2n1,-10.1,·
O=C(CSc1ccc2nnc(-c3ccccc3)n2n1)NC1CCCC1,34.0*,101.9
Cc1c(N2C(=O)/C(=C/c3ccc(Br)cc3)SC2=S)c(=O)n(-c2ccccc2)n1C,·,103.7

# Record cards (already shown). Order of values: HCMV NEC inh	GIV Gai3 FP
# CCc1ccc(C(=O)Nc2nccs2)cc1 is listed with ·	104.8
# CC(NC(=O)c1ccccc1N=Cc1c(O)ccc2ccccc12)c1ccccc1 (stereo not drawn) is listed with 67.5*!	·
# Oc1ccc2ccccc2c1C=NCc1ccccc1 is listed with 59.8*	103.2
# Cc1ccc(-c2nc(CSCC(=O)NC3CCCCC3)no2)cc1 is listed with ·	98.8
# CCN(CC)c1ccc2nc3c(nc2c1)C(=O)c1ccccc1C3=O is listed with 63.6*	107.5

# Copied from the entries so far (2 entries):
SMILES,HCMV NEC inh,GIV Gai3 FP
CCN(CC)c1ccc(C=C2C(=O)c3ccccc3C2=O)c(OC)c1,·,-18.2*
C=CCSc1nc(C)cc(C)c1C(=O)Nc1ccccc1,-6.7,101.2

# Remaining list, next part:
SMILES,HCMV NEC inh,GIV Gai3 FP
CN(C)/C=C1\SC(=S)N(c2ccc(Br)cc2)C1=O,-104.3,-65.5*
CCC(=O)NCc1ccc2[nH]c3c(c2c1)CCCC3,4.2,·
N#CCc1c(C#N)c(N)nc(Nc2ccccc2)c1C#N,72.0*,·
CSc1nc(-c2ccccc2)nc(Nc2ccccc2)c1C#N,-14.8,102.5
COc1cccc(CC2(O)C(=O)Nc3ccccc32)c1 (stereo not drawn),-18.5,·
COc1cc(C2C(=O)N(C3CCC(C)CC3)CC(=O)N2Cc2ccc3c(c2)OCO3)ccc1OC(C)C (stereo not drawn),-13.0,105.0
CCSC1=N/C(=C\c2ccc(N(C)C)cc2)C(=O)S1,-4.3,27.7*
CCSC1=N/C(=C\c2ccc(C(=O)O)cc2)C(=O)S1,·,106.0
O=C(CN1C(=O)S/C(=C/c2ccc(N3CCCCCC3)o2)C1=O)N1CCCCCC1,-24.6,·
COC(=O)C(C)N1C(=O)S/C(=C/c2ccc(N3CCCCCC3)o2)C1=O (stereo not drawn),-46.6,-14.8*
COc1ccc(NC(=O)COC(=O)C2CCCCC2)cc1,-24.7,·
Cc1ccc(S(=O)(=O)NC(C)C(=O)Oc2cc3oc(=O)c(Cl)c(C)c3cc2Cl)cc1 (stereo not drawn),-48.5,·
CCCC1C(C#N)=C(N)SC(N)=C1C#N,-11.0,·
CC1C(C#N)=C(N)SC(N)=C1C#N,29.5,-20.3*
CN(Cc1ccccc1)C(=O)c1ccccc1Cl,-15.2,·
O=C(CN1CCc2sccc2C1c1cccs1)Nc1ccc2c(c1)OCO2 (stereo not drawn),-18.9,·
COCC(C)NCc1ccc(OC)c(OC)c1 (stereo not drawn),-10.0,104.1
COc1cc(OC)c(CNc2ccc3cn[nH]c3c2)cc1Br,-8.0,111.1
Brc1ccc(CNc2ccc3cn[nH]c3c2)s1,56.1*,115.5
COc1cc(C2C=C(c3cccs3)Nc3ncnn32)cc(OC)c1OC (stereo not drawn),·,-0.1*
C1=C(c2ccccc2)Nc2ncnn2C1c1ccccc1 (stereo not drawn),-15.7,·
CCC(C)NC(=O)C1CCN(S(=O)(=O)c2c(C)[nH]c(C)c2C(=O)N2CCCCC2)CC1 (stereo not drawn),0.7,107.2
CS(=O)CCNC(=O)Nc1ccc(Cl)c(Cl)c1 (stereo not drawn),·,107.2
CNC(=O)CNC(=O)Nc1ccc(Cl)c(Cl)c1,44.1*,·
CCCCNC(=O)[C@@H]1C[C@H](CN2CCOCC2)CN(Cc2ccc(O)cc2)C1,3.7,·
Cc1nc(N2CCOCC2)nc(OC2C(=O)c3ccccc3C2=O)c1[N+](=O)[O-],·,101.0
Cc1ccc(-c2nnc(Nc3ccc(S(N)(=O)=O)cc3)c3ccccc23)cc1S(=O)(=O)N1CCN(C)CC1,-11.4,103.0
CCOC(=O)c1c(S(=O)(=O)N2CCC(C(=O)Nc3ccc(F)c(Cl)c3)CC2)c(C)n(C)c1C,·,106.4

# Bioassay records: PubChem, ICCB-Longwood Screening Facility, Harvard Medical School
